Assay results: article PMC4613722 (Bioscience Reports, 2015)

Chains of the proteins cited; added tags and fusions are not shown. Lines headed by an entry give the natural chain unless they say otherwise; changes in a name come on top.
UniProt F4KEV7: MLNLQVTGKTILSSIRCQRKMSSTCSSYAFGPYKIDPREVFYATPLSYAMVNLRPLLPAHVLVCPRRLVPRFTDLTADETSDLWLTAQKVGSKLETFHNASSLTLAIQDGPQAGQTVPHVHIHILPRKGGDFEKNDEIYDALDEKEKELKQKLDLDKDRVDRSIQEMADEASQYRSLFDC

Columns and labels:
[1] = biological target: A. thaliana Fhit (Arabidopsis thaliana, UniProt F4KEV7)
[2] = test system: Nc1ncnc2c1ncn2[C@@H]1O[C@H](COP(=O)(O)OS(=O)(=O)O)[C@@H](O)[C@H]1O; test: purified protein; conditions: pH 10.6

Molecule | ammonolysis assay [1] | Km [2] [µM]
Nc1ncnc2c1ncn2[C@@H]1O[C@H](COP(=O)(O)OS(=O)(=O)O)[C@@H](O)[C@H]1O [SO4-pA] | A. thaliana Fhits and T. brucei HIT-45 protein do catalyse ammonolysis of SO4-pA | –
human Fhit (Homo sapiens) | – | 2400 ± 300
